The source of these data is patent US4543256A, “(-)-10,1L Methylenedioxy-N-N-propylnoraporphine and methods employing it for inhibiting the effects of epileptic seizures and for prevention and treatment of duodenal ulcers” (Northeastern University, priority 1982, dated 1985).

Each structure is given as a SMILES string. Where a name gives a salt, the structure may show the parent alone.

The subject of the assay is duodenal ulcers. Briefly: Cysteamine-induced duodenal ulcer in the rat. As to conditions: once daily for seven days before cysteamine-hydrochloride.

As for `CCCN1CCc2cccc3c2[C@H]1Cc1ccc2c(c1-3)OCO2` [MDO-NPA, (-) 10, 11-methylenedioxy-N-n-propylnoraporphine-HCl], the “dose effective in preventing ulcers” value is given as 100 micrograms per hundred grams of body weight.
